From article PMC7145534, “Are the intrinsically disordered linkers involved in SSB binding to accessory proteins?” (Nucleic Acids Research, 2019) come the findings set out here.

What all share (details): both partners purified
Assay [1] addresses T1, Escherichia coli RecO protein (E. coli, UniProt P0A7H3 1-242).
T1 construct: E. coli RecO, recombination mediator of the RecF pathway; source: E. coli BL21(DE3)pLysS, plasmid pMCSG7, purified (Ni-NTA, HiTrap Heparin HP) after His-tag cleavage with TEV protease
T1 sequence (looked up): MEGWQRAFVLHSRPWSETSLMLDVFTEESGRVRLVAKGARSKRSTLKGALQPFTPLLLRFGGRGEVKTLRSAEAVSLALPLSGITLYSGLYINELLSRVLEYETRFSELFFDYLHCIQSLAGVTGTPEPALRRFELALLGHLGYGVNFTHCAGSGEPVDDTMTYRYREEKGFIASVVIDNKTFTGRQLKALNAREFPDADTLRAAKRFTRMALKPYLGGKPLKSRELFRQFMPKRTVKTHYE
As to the kind of experiment: ITC; apo wtSSB tetramer and RecO, fits with N floated (RecO per SSB tetramer), told for 15, 25 and 37°C together; buffer BTP pH 7.0, 200 mM NaCl.

Assay [2] addresses T1, Escherichia coli RecO protein. As to the kind of experiment: ITC; SSB tetramer in 1:1 complex with (dT)70 titrated into RecO; buffer BTP pH 7.0, 200 mM NaCl, 15°C; N fixed to 4, K and ΔH per C-terminus. A general note: Isothermal titration calorimetry measures the heat released or taken up as one component is titrated into another.
For assay [3] the target is unchanged. The experiment in a line: ITC; SSB tetramer in 1:1 complex with (dT)70 titrated into RecO; buffer BTP pH 7.0, 200 mM NaCl, 37°C; N fixed to 4, K and ΔH per C-terminus.
For assay [4] the target is unchanged. The experiment in a line: ITC; wtSSB–(dT)70 complex and RecO, fits with N floated (RecO per SSB tetramer), told for 15, 25 and 37°C together; buffer BTP pH 7.0, 200 mM NaCl.
Assay [5] has the same target. As to the kind of experiment: ITC; SSB tetramer–(dT)70 complex (9–10 μM) titrated into RecO (1 μM); buffer BTP pH 7.0, 200 mM NaCl, 25°C; N fixed to 4, K and ΔH per C-terminus.
Assay [6] shares this target. The experiment in a line: ITC; apo SSB tetramer (8–10 μM) titrated into RecO (1 μM); buffer BTP pH 7.0, 200 mM NaCl, 15°C; N fixed to 4 RecO per tetramer, K and ΔH per C-terminus.
For assay [7] the target is unchanged. The experiment in a line: ITC; apo SSB tetramer (8–10 μM) titrated into RecO (1 μM); buffer BTP pH 7.0, 200 mM NaCl, 37°C; N fixed to 4 RecO per tetramer, K and ΔH per C-terminus.
The target is the same in assay [8]. As to the kind of experiment: ITC; apo SSB tetramer (9–10 μM) titrated into RecO (1 μM); buffer BTP pH 7.0, 200 mM NaCl, 25°C; N fixed to 4 RecO per tetramer, K and ΔH per C-terminus.

B1: Escherichia coli single stranded DNA binding protein (SSB), wild-type tetramer (natural protein, E. coli, UniProt P0AGE0 1-178, looked up)
chain: MASRGVNKVILVGNLGQDPEVRYMPNGGAVANITLATSESWRDKATGEMKEQTEWHRVVLFGKLAEVASEYLRKGSQVYIEGQLRTRKWTDQSGQDRYTTEVVVNVGGTMQMLGGRQGGGAPAGGNIGGGQPQGGWGQPQQPQGGNQFSGGAQSRPQQSAPAAPSNEPPMDFDDDIPF
notes: Homo-tetramer; used alone (apo) and in a 1:1 complex with (dT)70 (told apart by the assay); also called wtSSB; SSB tetramer
In the case of B1, the entries for the “stoichiometry N” value in assay [1] and in assay [4] were 3.4 to 4 and ~4, respectively. Also, the “dH (per tip, ΔH/4)” value in assay [2] is -26.8 ± 0.837 kJ/mol; in assay [3] it was -22.2 ± 2.51 kJ/mol; in assay [5], -43.1 ± 0.837 kJ/mol; in assay [6] it was -41 ± 1.26 kJ/mol; in assay [7], -34.7 ± 3.35 kJ/mol; in assay [8], -39.3 ± 2.09 kJ/mol.

The stoichiometry N is a count of units in the complex or per binding partner.
